# Assay results: PMC5358098 (ACS chemical neuroscience, 2016)
# Chains of the proteins cited; added tags and fusions are not shown.
# UniProt P47746, whole entry: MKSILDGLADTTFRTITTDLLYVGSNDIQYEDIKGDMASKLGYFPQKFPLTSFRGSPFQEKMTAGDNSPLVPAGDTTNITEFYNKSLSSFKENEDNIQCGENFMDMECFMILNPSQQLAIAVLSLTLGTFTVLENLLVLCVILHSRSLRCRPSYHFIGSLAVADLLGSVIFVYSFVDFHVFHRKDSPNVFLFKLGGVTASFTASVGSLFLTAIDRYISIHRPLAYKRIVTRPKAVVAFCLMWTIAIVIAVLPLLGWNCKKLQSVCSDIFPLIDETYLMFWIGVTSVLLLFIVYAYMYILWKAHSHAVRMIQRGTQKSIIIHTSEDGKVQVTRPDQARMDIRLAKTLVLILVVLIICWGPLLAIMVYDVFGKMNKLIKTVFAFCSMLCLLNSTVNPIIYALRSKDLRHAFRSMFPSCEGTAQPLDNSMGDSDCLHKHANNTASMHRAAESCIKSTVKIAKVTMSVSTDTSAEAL
# How the values were obtained:
# hCB1R = test: Operational model bias analysis, HEK293A cells; assay type: cell-based, human; conditions: reference 2-AG + GAT100
# CB1R = CB1R (Mus musculus, UniProt P47746); test: Operational model bias analysis, Neuro2a cells; assay type: cell-based; conditions: reference 2-AG + GAT100
# [1] = 500 nM 2-AG + 1 nM-10 μM allosteric modulator
# [2] = 500 nM AEA + 1 nM-10 μM allosteric modulator
# [3] = 500 nM CP55,940 + 1 nM-10 μM allosteric modulator
Structure (SMILES),ΔΔlog R β-arrestin1/pERK1/2 (hCB1R; [1]),ΔΔlog R β-arrestin1/pERK1/2 (hCB1R; [2]),ΔΔlog R β-arrestin1/pERK1/2 (hCB1R; [3]),ΔΔlog R β-arrestin1/pERK1/2 (CB1R; [1]),ΔΔlog R β-arrestin1/pERK1/2 (CB1R; [2]),ΔΔlog R β-arrestin1/pERK1/2 (CB1R; [3])
"CCc1c(C(=O)NCCc2ccc(N3CCCCC3)cc2)[nH]c2ccc(N=C=S)cc12 [GAT100, 3-ethyl-5-isothiocyanato-N-(4-(piperidin-1-yl)phenethyl)-1H-indole-2-carboxamide]",0.0 ± 0.1,–0.6 ± 0.1,–0.2 ± 0.1,0.0 ± 0.1,0.9 ± 0.1,1.0 ± 0.1
"CCc1c(C(=O)NCCc2ccc(N3CCCCC3)cc2)[nH]c2ccc(Cl)cc12 [Org27569, 5-chloro-3-ethyl-N-(4-(piperidin-1-yl)phenethyl)-1H-indole-2-carboxamide]",–1.1 ± 0.1,1.2 ± 0.8,0.6 ± 0.4,0.5 ± 0.2,0.2 ± 0.2,0.5 ± 0.9
